Data: ChEMBL document CHEMBL4699668, “Discovery and Structure-Activity Relationships of Novel Template, Truncated 1'-Homologated Adenosine Derivatives as Pure Dual PPARγ/δ Modulators” (J Med Chem, 2020)

Biological target: T1, Peroxisome proliferator-activated receptor delta (Homo sapiens) (UniProt Q03181)
T1 sequence (whole entry): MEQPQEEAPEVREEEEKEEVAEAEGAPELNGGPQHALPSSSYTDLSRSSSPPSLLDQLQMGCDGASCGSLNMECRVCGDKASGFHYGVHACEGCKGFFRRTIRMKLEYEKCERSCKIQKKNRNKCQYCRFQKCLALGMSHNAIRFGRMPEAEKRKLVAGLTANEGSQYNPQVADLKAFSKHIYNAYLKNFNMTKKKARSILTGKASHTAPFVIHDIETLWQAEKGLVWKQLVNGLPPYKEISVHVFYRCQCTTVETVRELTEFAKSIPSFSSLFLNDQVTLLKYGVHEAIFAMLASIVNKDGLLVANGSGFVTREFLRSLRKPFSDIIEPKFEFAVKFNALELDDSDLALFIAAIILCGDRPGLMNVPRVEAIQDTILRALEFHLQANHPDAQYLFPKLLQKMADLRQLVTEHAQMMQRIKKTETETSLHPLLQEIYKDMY
Conditions: filed as antagonist, dose 10.0 µM

SMILES: O[C@@H]1[C@H](O)CS[C@H]1Cn1cnc2c(NCc3cccc(I)c3)nc(Cl)nc21
- Activity: Active

The source made the active and inactive calls. The calls are words filed in the database; no cut-off is given here.
